The target in this test is von Hippel-Lindau disease tumor suppressor/SWI/SNF-related matrix-associated actin-dependent regulator of chromatin subfamily A member 2 (Homo sapiens, UniProt P51531+P40337). Put plainly: PROTAC activity at SMARCA2/VHL1 in human HeLa cells assessed as protein degradation after 2 hrs by Nano-Glo HiBiT lytic detection assay. Type of test: cell-based. On the technique in general: HiBiT is a short tag that completes a luciferase, so light tracks the accessible tagged protein.

By UniProt entry, the sequences of proteins in these tests, tags left out.
UniProt P51531, whole entry, looked up: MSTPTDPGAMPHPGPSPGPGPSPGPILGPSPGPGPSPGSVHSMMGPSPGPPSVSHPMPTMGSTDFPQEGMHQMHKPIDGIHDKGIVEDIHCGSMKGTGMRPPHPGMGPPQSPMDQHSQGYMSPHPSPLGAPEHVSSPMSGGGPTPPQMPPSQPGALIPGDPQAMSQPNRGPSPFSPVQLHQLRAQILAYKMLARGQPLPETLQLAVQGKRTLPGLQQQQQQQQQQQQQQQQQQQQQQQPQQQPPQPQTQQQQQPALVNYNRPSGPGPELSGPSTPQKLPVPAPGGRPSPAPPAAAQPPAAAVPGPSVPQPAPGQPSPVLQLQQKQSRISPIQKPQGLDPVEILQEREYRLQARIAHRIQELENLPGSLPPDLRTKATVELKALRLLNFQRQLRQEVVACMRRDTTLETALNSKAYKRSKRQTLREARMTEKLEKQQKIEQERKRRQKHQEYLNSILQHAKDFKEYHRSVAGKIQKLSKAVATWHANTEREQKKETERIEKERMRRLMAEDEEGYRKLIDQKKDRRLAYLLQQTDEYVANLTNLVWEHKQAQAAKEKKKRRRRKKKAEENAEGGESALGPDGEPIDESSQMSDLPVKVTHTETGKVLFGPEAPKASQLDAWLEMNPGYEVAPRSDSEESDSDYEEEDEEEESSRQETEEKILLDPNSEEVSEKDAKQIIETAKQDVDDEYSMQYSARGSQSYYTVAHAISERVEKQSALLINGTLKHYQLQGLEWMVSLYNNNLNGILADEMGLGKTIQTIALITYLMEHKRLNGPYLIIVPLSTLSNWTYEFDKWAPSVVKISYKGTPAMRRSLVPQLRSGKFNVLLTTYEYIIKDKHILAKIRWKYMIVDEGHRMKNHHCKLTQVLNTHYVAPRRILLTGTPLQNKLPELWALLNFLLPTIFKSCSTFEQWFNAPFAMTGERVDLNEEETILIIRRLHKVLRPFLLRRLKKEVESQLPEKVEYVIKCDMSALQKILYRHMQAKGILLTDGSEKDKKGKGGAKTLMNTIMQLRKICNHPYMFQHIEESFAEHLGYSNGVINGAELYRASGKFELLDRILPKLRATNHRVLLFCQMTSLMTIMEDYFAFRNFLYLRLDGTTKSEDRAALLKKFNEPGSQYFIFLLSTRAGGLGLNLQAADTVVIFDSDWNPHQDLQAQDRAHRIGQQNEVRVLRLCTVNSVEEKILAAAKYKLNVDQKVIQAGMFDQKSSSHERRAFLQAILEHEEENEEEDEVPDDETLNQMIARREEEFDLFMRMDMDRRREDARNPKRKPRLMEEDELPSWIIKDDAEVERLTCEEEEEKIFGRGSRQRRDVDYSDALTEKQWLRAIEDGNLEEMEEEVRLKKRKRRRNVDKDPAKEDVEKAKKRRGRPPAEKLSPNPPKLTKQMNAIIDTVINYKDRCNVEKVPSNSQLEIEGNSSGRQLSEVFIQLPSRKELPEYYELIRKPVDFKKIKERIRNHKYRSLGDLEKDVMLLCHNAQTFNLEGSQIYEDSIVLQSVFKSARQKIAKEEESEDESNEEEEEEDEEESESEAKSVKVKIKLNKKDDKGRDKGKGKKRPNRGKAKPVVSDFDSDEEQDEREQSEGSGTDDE
UniProt P40337, whole entry, looked up: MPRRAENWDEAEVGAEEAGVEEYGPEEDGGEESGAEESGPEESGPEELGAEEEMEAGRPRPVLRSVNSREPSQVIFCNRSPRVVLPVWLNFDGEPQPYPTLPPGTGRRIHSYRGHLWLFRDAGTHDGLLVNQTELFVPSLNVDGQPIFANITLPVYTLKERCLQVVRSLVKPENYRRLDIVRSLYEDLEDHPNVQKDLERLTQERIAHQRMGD

Activity calls are given as the source filed them. No cut-off for these calls is given here.

With `Cc1ncsc1-c1ccc([C@H](CN2CCOCC2)NC(=O)[C@@H]2C[C@H](O)CN2C(=O)[C@@H](n2cc([C@H]3CC[C@H](CN4CCC(c5ccc6c(c5)C5(CCCCC5)c5nc(=O)c7c(Cl)cccc7n5-6)CC4)CC3)nn2)C(C)(C)C)cc1`, the result was inactive.

The record behind these values is ChEMBL document CHEMBL6096675 (J Med Chem, 2025).
